The structures appear in SMILES notation.

Protein sequences, listed by entry. Tags and fused reporters are not part of them. Residues count along the entry.
UniProt P13612, 1002-1032 limits assumed: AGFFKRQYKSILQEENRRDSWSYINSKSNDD
UniProt P49023, 1-557 isoform 2: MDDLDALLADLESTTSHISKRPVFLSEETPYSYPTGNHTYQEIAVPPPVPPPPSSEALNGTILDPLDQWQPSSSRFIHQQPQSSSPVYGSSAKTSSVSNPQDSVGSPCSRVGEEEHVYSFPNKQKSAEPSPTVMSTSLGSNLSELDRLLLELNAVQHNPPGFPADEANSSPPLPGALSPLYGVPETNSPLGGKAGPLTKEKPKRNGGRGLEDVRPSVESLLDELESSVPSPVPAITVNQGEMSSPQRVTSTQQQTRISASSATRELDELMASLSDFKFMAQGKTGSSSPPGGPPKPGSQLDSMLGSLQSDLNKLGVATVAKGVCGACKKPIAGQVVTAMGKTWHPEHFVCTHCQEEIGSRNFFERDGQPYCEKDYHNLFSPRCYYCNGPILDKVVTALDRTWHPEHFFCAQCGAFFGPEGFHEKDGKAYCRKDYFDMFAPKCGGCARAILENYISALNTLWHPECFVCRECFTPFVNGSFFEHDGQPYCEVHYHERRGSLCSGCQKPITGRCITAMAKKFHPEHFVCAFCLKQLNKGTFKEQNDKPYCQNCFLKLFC

Experimental findings from US20060167271A1, “Purified compounds that inhibit intracellular alphax4/paxillin binding” (priority 2002, published 2006) are described below.

In this test the target is Paxillin/α4 binding (immobilized His-tagged α4 tail, soluble recombinant Paxillin) (Homo sapiens, UniProt P13612+P49023). In words: Immobilized Paxillin/α4 binding assay (ELISA). The settings on record: for Inhibition (%) of α4/Paxillin Binding by Deconvoluted Samples of 11-AxByCz: 1 μM; for IC50: read-out: Inhibition of α4/Paxillin Binding by Deconvoluted Samples of 11-AxByCz (IC50). The procedure:
FIG. 4 is a schematic representation of the high throughput screening by ELIZA used herein in which the α4 tail is coated onto a Ni-NTA microtiter plate (a), Paxillin is permitted to bind to α4 (b), first antibody is added (anti-Paxillin) (c), second antibody is added (HRP-conjugated, anti-mouse) (d), and Pax/α4 binding efficiency is measured by detection at 490 nm (e). For binding inhibition, compounds were added during Paxillin incubation (step b). […], zero % inhibition was measured from incubation with Paxillin and no compound.
Initially, roughly 40,000 compounds were screened in approximately 2000 wells (most as a mixture of 10 compounds, 50 μM total concentration) in an ELISA assay using an immobilized His-tagged α4 tail [Pfaff et al. (1998) J. Biol. Chem. 273, 6104-6109] and examining the binding inhibition of soluble recombinant Paxillin [Salgia et al. (1995) J. Biol. Chem. 270, 5039-5047] (FIG. 3).
Paxillin/α4 binding assays were performed as follows. Ni-NTA HisSorb microtiter strips (Qiagen) were coated overnight at 4° C. with purified α4 tail integrin (5 μg/ml, 100 μl per well) in PBS buffer (8 mM Na2HPO4, 1.5 mM KH2PO4, 135 mM NaCl, 2.5 mM KCl [pH 7.4]) supplemented with heat-denatured BSA (0.2%). The plates were washed three times with PBS buffer to remove unbound integrin, blocked with 150 μl of heat-denatured 1% BSA (denatured at 85° C. for 30 minutes and supplemented with 0.05% sodium azide) for 1 hour at room temperature, and washed again three times with PBS buffer.
Purified Paxillin in binding buffer (10% DMSO, 0.2% BSA in PBS buffer) was added to the wells at a concentration of 5 μg/ml in the presence or absence of compounds (1 mM DMSO stock solutions). […] As a control, blocked wells without integrin were examined for binding. After 1 hour at room temperature, the wells were washed three times with PBS buffer, incubated with first antibody (12CA5 ascites, 1/10000 in PBS plus 1% BSA, 100 μL) for 1 hour at room temperature, then with second antibody (100 μl HRP-conjugated anti-mouse [Biosource] in PBS buffer plus 1% BSA) for 1 hour at room temperature. Each well was treated with 50 μl of substrate solution (4 mg o-phenylenediamine, 4 μl of 30% H2O2, 80 mM citrate phosphate [pH 5]) and stopped after 10 minutes at room temperature with 50 μl H2SO4 (2 N). Binding was quantitated on a vmax kinetic microplate reader (Molecular Devices) at 490 nm. Zero % inhibition control was measured with Paxillin and no compound, and 100% inhibition control (background) was measured with no Paxillin and no compound. Each well was duplicated and percent inhibition was averaged.

In the case of `COC(=O)c1cc(NC(=O)c2cc3c4c(ccc3[nH]2)N(C(=O)c2cc3c5c(ccc3[nH]2)N(C(=O)CCCN(C)C)CC5)CC4)cn1C`, the “Inhibition (%) of α4/Paxillin Binding by Deconvoluted Samples of 11-AxByCz” value (“Inhibition (%) of α4/Paxillin Binding” below) is 74% and the IC50 turned out to be 0.5 µM.
In the same order, the values of `COC(=O)c1cc2c3c(ccc2[nH]1)N(C(=O)c1cc2c4c(ccc2[nH]1)N(C(=O)c1cc2cc(NC(=O)CCCN(C)C)ccc2o1)CC4)CC3` are 81% and 0.4 µM.
In the same order, the values of `COC(=O)c1cc2c3c(ccc2[nH]1)N(C(=O)c1cc2c4c(ccc2[nH]1)N(C(=O)c1cccc(NC(=O)CCCN(C)C)c1)CC4)CC3` are 58% and 1.4 µM.
In the same order, the values of `COC(=O)c1cc2c3c(ccc2[nH]1)N(C(=O)c1cc2c4c(ccc2[nH]1)N(C(=O)c1cc(NC(=O)CCCN(C)C)cs1)CC4)CC3` are 76% and 0.4 µM.
In the case of `COC(=O)c1cc2c3c(ccc2[nH]1)N(C(=O)c1cc2c4c(ccc2[nH]1)N(C(=O)c1csc(NC(=O)CCCN(C)C)n1)CC4)CC3`, the “Inhibition (%) of α4/Paxillin Binding” value was 80% and the IC50 amounted to 0.4 µM.
Regarding `COC(=O)c1cc2c3c(ccc2[nH]1)N(C(=O)c1cc2c4c(ccc2[nH]1)N(C(=O)c1ccc(NC(=O)CCCN(C)C)cc1)CC4)CC3`, the “Inhibition (%) of α4/Paxillin Binding” value is given as 70% and the IC50 was found to be 0.6 µM.
For `COC(=O)c1cc2c3c(ccc2[nH]1)N(C(=O)c1cc2c4c(ccc2[nH]1)N(C(=O)c1cc(NC(=O)CCCN(C)C)cn1C)CC4)CC3`, the “Inhibition (%) of α4/Paxillin Binding” value is reported as 66% and the IC50 came out at 2.2 µM.
For the compound `COC(=O)c1cc2c3c(ccc2[nH]1)N(C(=O)c1cc2c4c(ccc2[nH]1)N(C(=O)c1cc2cc(NC(=O)CCCN(C)C)ccc2[nH]1)CC4)CC3`, the “Inhibition (%) of α4/Paxillin Binding” value is given as 63% and the IC50 worked out at 4.8 µM.
On to `COC(=O)c1cc2c3c(ccc2[nH]1)N(C(=O)c1cc2c4c(ccc2[nH]1)N(C(=O)c1nc(NC(=O)CCCN(C)C)cn1C)CC4)CC3`, for which the “Inhibition (%) of α4/Paxillin Binding” value is listed as 68% and the IC50 is 0.5 µM.
In the same order, the values of `COC(=O)c1cc2c3c(ccc2[nH]1)N(C(=O)c1cc2c4c(ccc2[nH]1)N(C(=O)c1cc2cc(NC(=O)CCCN(C)C)ccc2s1)CC4)CC3` are 74% and 0.7 µM.
